{"source": "patent US20050282755A1", "about": "“Compositions having antimicrobial activity and uses thereof” (priority 2004, published 2005)", "key": {"Salmonella dublin (Lane)": {"tested_on": "Salmonella dublin (Lane)", "conditions": "pH 7.4"}, "[1]": {"tested_on": "E. coli K12 55099 (protease neg.)", "conditions": "3 log or greater reduction in bacterial growth over 16 hours"}, "E. coli K12 TOP10": {"tested_on": "E. coli K12 TOP10", "conditions": "3 log or greater reduction in bacterial growth over 16 hours"}, "[2]": {"tested_on": "Staphylococcus aureus ATCC 29213", "conditions": "ATCC 29213, pH 7.4"}, "human red blood cells": {"tested_on": "human red blood cells", "format": "cell-based", "conditions": "red cells of human, 100 Micromolar", "experimental": "Hemoglobin-release assays with human red blood cells (RBC) were performed to determine the hemolytic activity of granulysin peptides. Human RBCs (San Diego Blood Bank, San Diego, Calif.) were washed three times in PBS buffer (8 mM Na2HPO4, 1.5 mM KH2PO4, 140 mM NaCl and 2.7 mM KCl, pH 7.4), resuspended in PBS to the concentration of 5% (v/v). The RBC were then exposed to different peptide compositions at various concentrations (100-6.25 micromolar) and incubated at 37° C. for 60 minutes in a total volume of 120 microliters. Every experiment included a negative control without peptide and maximum control treated with 5% TX-100 for complete hemoglobin release. Samples were centrifuged for 1 minute at 13,000 g to remove debris and intact cells. The hemoglobin-containing supernatant was removed and transferred to a microwell plate. Hemoglobin release was quantified at A540 using a Versamax plate reader (Molecular Devices). The degree of hemolysis is expressed as percentage of hemolysis compared to the […], using the following formula: % hemolysis=(sample−neg. control)/(max. control−neg. control)×100."}, "S. dublin (Lane)": {"tested_on": "S. dublin (Lane)", "experiment": "Broth microdilution assay for MIC, Table 4A", "format": "cell-based, Salmonella dublin", "conditions": "3 log or greater reduction in bacterial growth over 16 hours", "experimental": "(§1) S. dublin (Lane), S. aureus (Rosenbach), P. acnes, ATCC 6919, E. coli K12 TOP10, and E. coli K12 55099 (protease neg.) bacterial strains were tested in the microbial inhibition assays described hereafter. The S. dublin (Lane), and S. aureus (Rosenbach) strains are available from ATCC (Staphylococcus aureus subsp. aureus Rosenbach (Number: 13150) and Salmonella choleraesuis serotype dublin (Number: 39184)). The strain of P. acnes was purchased from ATCC (strain #6919) (Manassas, Va.). The E. coli K12 strains TOP 10 and 55099 were purchased from Invitrogen (Carlsbad, Calif.) and ATCC respectively. HeLa cells were purchased from ATCC (CCL2). Tryptic soy broth (TSB), Brucella broth, reinforced Clostridial broth and agar were purchased from Becton & Dickinson (distributed by VWR, West Chester, Pa.). All plastic consumables were purchased from VWR (West Chester, Pa.). […]\n(§2) The minimum inhibitory concentration (MIC) of peptide compositions for S. aureus, S. dublin and E. coli was determined in a broth microdilution assay. […] The MIC for each peptide for each microorganism was determined by three methods. The growth of bacteria was directly determined by measuring the absorption at 600 nm using a Versamax microplate reader (Molecular Devices). […] After incubation for 16 hours at 37° C. bacterial growth was evaluated and documented (Alpha Innotech gel documentation system)."}, "S. aureus (Rosenbach)": {"tested_on": "S. aureus (Rosenbach)", "experiment": "Broth microdilution assay for MIC (20% TSB, 50 mM Na2CO3, 1 mM MgCl2), Table 4A", "format": "cell-based, Staphylococcus aureus", "conditions": "3 log or greater reduction in bacterial growth over 16 hours", "experimental": "as §1, §2"}, "P. acnes, ATCC 6919": {"tested_on": "P. acnes, ATCC 6919", "experiment": "Broth microdilution assay for P. acnes MBC, Table 4B", "format": "cell-based, Propionibacterium acnes", "conditions": "3 log or greater reduction in CFU/milliliter after 2.5 hours", "text": "The strain of P. acnes was purchased from ATCC (strain #6919) (Manassas, Va.). […] HeLa cells were purchased from ATCC (CCL2). Tryptic soy broth (TSB), Brucella broth, reinforced Clostridial broth and agar were purchased from Becton & Dickinson (distributed by VWR, West Chester, Pa.). All plastic consumables were purchased from VWR (West Chester, Pa.). Chemicals were purchased from Sigma Aldrich (St. Louis, Mo.). DMEM, antibiotics and cell culture supplements were purchased from Invitrogen (Carlsbad, Calif.), fetal calf serum (FCS) was purchased from Hyclone (Logan, Utah). […] For propagation in liquid culture individual colonies were inoculated in […] of TSB broth for 16 hours at 37° C. under constant shaking. P. acnes was grown on Brucella broth blood agar plates (supplemented with 5% defibrinated sheep blood, […] hemin and […] vitamin K) under anaerobic conditions (GasPak system, Becton & Dickinson) for 96 hours at 37° C. For propagation in liquid culture individual colonies were inoculated in […] of reinforced Clostridial broth under anaerobic conditions for 72 hours at 37° C. […] The minimum bactericidal concentration (MBC) of peptide compositions for P. acnes was determined in a microdilution assay. […] The appearance of bacterial colonies was evaluated and documented."}, "[3]": {"tested_on": "Propionibacterium acnes ATCC 6919", "format": "cell-based", "experimental": "A second method that was used to determine the MIC in P. acnes for selected antimicrobial agents was a non-standard broth microdilution method that used an assay buffer composed of reinforced Clostridial broth. Briefly, a log-phase bacterial culture of P. acnes was used to inoculate wells of a 96-well plate so that the final inoculum for each well contained 5×10^5 to 1×10^6 CFU/milliliter. […] Plates were incubated for 48-72 hours at 37° C. in a GasPak anaerobic chamber. The lowest concentration of peptide that contained no visible growth as evidenced by a lack of turbidity when compared to the control (no peptide) was determined as the MIC. MIC values that utilized this method of MIC determination are indicated in Table 9 with a subscript letter “d.”"}}}
{"smiles": "CSCC[C@@H](NC(=O)[C@@H](Cc1ccccc1)NC(=O)[C@@H](CC(N)=O)NC(=O)[C@@H](CCCNC(=N)N)NC(=O)[C@@H](CO)NC(=O)[C@@H](Cc1c[nH]c2ccccc12)NC(=O)[C@@H](CC(=O)O)NC(=O)[C@@H](CCCNC(=N)N)NC(=O)[C@@H](Cc1c[nH]c2ccccc12)NC(=O)[C@@H](CCCNC(=N)N)NC(=O)[C@@H](CO)NC(=O)[C@@H](CCCNC(=N)N)NC(=O)CNC(=O)[C@H](NC(=O)[C@@H](CCCNC(=N)N)NC(=O)[C@@H](CO)NC(=O)[C@H](NC(=O)[C@@H](CCCNC(=N)N)NC(=O)[C@H](NC(C)=O)[C@H](C)O)C(C)C)[C@H](C)O)C(=O)N[C@H](CCCNC(=N)N)C(=O)N[C@H](C)C(=O)N[C@H](C)C(=O)N[C@H](CCCN)C(=O)N[C@H](CCCN)C(=O)N[C@H](CCCN)C(=O)N[C@H](CCCN)C(=O)N[C@H](CCCN)C(=O)N[C@H](CCCN)C(=O)N[C@H](CCCN)C(=O)N[C@H](CCCN)C(N)=O", "note": "[Peptide 32, Ac-trvsrtgrsrwrdwsrnfmraaoooooooo-NH2]", "values": [{"measurement": "MIC S. dublin", "setting": "Salmonella dublin (Lane)", "value": 3, "unit": "b ug/mL"}, {"measurement": "Minimum inhibitory concentration (MIC) E. coli 55099", "setting": "[1]", "value": 1, "unit": "µM"}, {"measurement": "Minimum inhibitory concentration (MIC) E. coli Top10", "setting": "E. coli K12 TOP10", "value": 2, "unit": "µM"}, {"measurement": "MIC S. aureus", "setting": "[2]", "value": 3, "unit": "b ug/mL"}, {"measurement": "Hemolytic effect on human red blood cells", "setting": "human red blood cells", "value": 2, "unit": "%"}, {"measurement": "Minimum inhibitory concentration (MIC) S. dublin", "setting": "S. dublin (Lane)", "value": 2, "unit": "µM"}, {"measurement": "Minimum inhibitory concentration (MIC) S. aureus", "setting": "S. aureus (Rosenbach)", "value": 2, "unit": "µM"}, {"measurement": "Minimum bactericidal concentration (MBC) for P. acnes", "setting": "P. acnes, ATCC 6919", "value": 2, "unit": "micromolar units"}, {"measurement": "MIC P. acnes", "setting": "[3]", "value": 3, "unit": "µg·days/mL"}]}
